Values quoted from earlier work in PMC3720659, “Integrated Analysis of Drug-Induced Gene Expression Profiles Predicts Novel hERG Inhibitors” (PLoS ONE, 2013).

Tested on: hERG current
Settings: cited from earlier work; call rule not given here

Substance | Annotation (hERG Active / Inactive)
haloperidol | Active
nimodipine | Inactive
